# Ab-14 light chain CDR variants: yeast mating affinities

Source: Engelhart et al. 2022 (doi:10.1038/s41597-022-01779-4), MIT Lincoln Laboratory and A-Alpha Bio; data file from the FLAb repository.

Antigen: PDVDLGDISGINAS, a 14-residue peptide of the SARS-CoV-2 spike HR2 region.

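The starting antibody came from a phage panning campaign against this peptide. The library (AAYL50) carries one to three amino acid substitutions per variant, with no insertions or deletions. The scFvs were displayed on barcoded MATa yeast, the peptide on MATalpha yeast. After mating in shaken culture at 30 °C for 16 h, diploids were selected and their barcode pairs sequenced. The ratio of observed to expected reads was calibrated, replicate by replicate, on BCL2-family standards whose Kd was known from biolayer interferometry. Each pool was mated in three replicate cultures.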

Each scFv is VH, the linker GGGGSGGGGSGGGGS, VL, as in the parent Ab-14, and differs from it in the CDRs of the light chain only.
VH: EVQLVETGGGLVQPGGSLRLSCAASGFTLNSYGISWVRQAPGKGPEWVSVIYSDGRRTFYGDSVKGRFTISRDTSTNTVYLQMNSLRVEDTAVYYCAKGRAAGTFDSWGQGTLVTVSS
VL: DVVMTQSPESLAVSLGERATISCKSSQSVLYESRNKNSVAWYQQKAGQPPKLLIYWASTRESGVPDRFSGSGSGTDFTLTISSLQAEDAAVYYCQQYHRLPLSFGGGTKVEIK

Substitutions are numbered in sequence along the VL above, starting at 1 (not Kabat). Scale: log10 of Kd in nM, estimated from mating counts; low values are strong binders. The mean shown is taken over the replicates in which the pair was detected. "nd" marks a missing value. The strain was present, yet no cells mated with the target were sequenced in that replicate, which points to weak or no binding. Parent in this assay: reference entry 0.65, copy in this library 1.68. Three control strains display no target. For library AAYL50, 18% of the pairings with them gave a signal, with a median of 4.19 and one signal in twenty below 2.99, so weak values seen in few replicates may be background.

For A40E/R60G/S103T, the assay gave nd, nd, nd.
For S25W/S26D/P101V, the assay gave nd, nd, nd.
For K24W/R34K, the assay gave 1.50, 1.61, 1.72 (mean 1.61).
For K24Q/K36T/Q95A, the assay gave 2.21, 1.73, 1.55 (mean 1.83).
For Q27C/V29N/P101I, the assay gave 1.37, 1.85, 1.71 (mean 1.64).
For A57M/L100I/L102P, the assay gave 3.67, 3.10, 4.35 (mean 3.71).
For K36L/V39G/S58R, the assay gave nd, nd, nd.
For S38Q/H98F, the assay gave 0.39, 0.62, 0.45 (mean 0.49).
For Y31D/L100S/P101A, the assay gave 1.62, 2.25, 1.66 (mean 1.84).
For S25G/S33A/K36E, the assay gave 0.98, 1.07, 1.08 (mean 1.04).
For L30D/Q95M/P101L, the assay gave 0.39, 0.66, 0.52 (mean 0.52).
For L30V/Q95C/S103I, the assay gave 4.96, 4.91, nd (mean 4.94).
For V29A/Y97W/R99K, the assay gave nd, 5.23, 5.92 (mean 5.58).
For S62M/Y97L/L100R, the assay gave 2.19, 2.21, 2.29 (mean 2.23).
For S25G/R34W/L100Y, the assay gave 2.66, 2.41, 2.43 (mean 2.50).
For S38D/Y97A, the assay gave 3.64, nd, 4.32 (mean 3.98).
For S33C/K36D/S103M, the assay gave 2.57, 2.71, 2.70 (mean 2.66).
For L30N/R99D/L102G, the assay gave nd, 4.58, nd.
For N35K/Q96T/R99Y, the assay gave nd, nd, 4.64.
For N35V/S58F/L100W, the assay gave nd, 4.32, 6.17 (mean 5.24).
For Y31I/S58K/Y97A, the assay gave nd, nd, nd.
For K24F/R34I/T59M, the assay gave 1.46, 1.38, 1.46 (mean 1.43).
For Q27E/S33N/S103M, the assay gave 4.98, 3.79, 4.72 (mean 4.50).
For S26W/R99Y/S103P, the assay gave nd, nd, nd.
For S58A/S62W/L100E, the assay gave nd, nd, nd.
For L30R/R34K/S58K, the assay gave 3.75, 2.89, 2.72 (mean 3.12).
For S26H/Y31Q/T59C, the assay gave 1.39, 1.67, 1.74 (mean 1.60).
For R60N/S62P/R99K, the assay gave nd, 2.25, nd.
For Y97I/L102E/S103F, the assay gave nd, 3.80, 3.76 (mean 3.78).
For Q27P/S38F/R60L, the assay gave nd, nd, nd.
For Q27I/V29R, the assay gave 1.20, 1.08, 1.17 (mean 1.15).
For L30Y/N35Q/N37H, the assay gave 0.60, 0.90, 0.74 (mean 0.75).
For K36D/Q96V/H98F, the assay gave nd, 3.15, nd.
For N35M/K36W/W56C, the assay gave 2.98, 3.06, 3.23 (mean 3.09).
For S25K/K36I/A40I, the assay gave nd, nd, nd.
For L30W/E32P, the assay gave 0.76, 0.88, 0.75 (mean 0.80).
For V29R/K36M/V39G, the assay gave nd, nd, nd.
For S28A/S33N/P101G, the assay gave 4.70, nd, nd.
For S25R/S26V/P101H, the assay gave nd, nd, nd.
For S25K/Q27L/A40K, the assay gave nd, nd, nd.
For N37D/V39Y/L100M, the assay gave nd, nd, nd.
For Q27V/A40T/Y97T, the assay gave nd, nd, nd.
For E32N/E61G/P101L, the assay gave 2.62, 3.35, 3.82 (mean 3.26).
For S25P/S33C/T59G, the assay gave 6.30, nd, nd.
For K24P/R60M/H98F, the assay gave nd, nd, nd.

Repeated from above, the 7 best binders with a signal in all replicates:

{"changes": "S38Q/H98F", "log10 Kd, replicates": "0.39, 0.62, 0.45", "mean, log10 nM": "0.49"}
{"changes": "L30D/Q95M/P101L", "log10 Kd, replicates": "0.39, 0.66, 0.52", "mean, log10 nM": "0.52"}
{"changes": "L30Y/N35Q/N37H", "log10 Kd, replicates": "0.60, 0.90, 0.74", "mean, log10 nM": "0.75"}
{"changes": "L30W/E32P", "log10 Kd, replicates": "0.76, 0.88, 0.75", "mean, log10 nM": "0.80"}
{"changes": "S25G/S33A/K36E", "log10 Kd, replicates": "0.98, 1.07, 1.08", "mean, log10 nM": "1.04"}
{"changes": "Q27I/V29R", "log10 Kd, replicates": "1.20, 1.08, 1.17", "mean, log10 nM": "1.15"}
{"changes": "K24F/R34I/T59M", "log10 Kd, replicates": "1.46, 1.38, 1.46", "mean, log10 nM": "1.43"}